Data published in US20190094246A1, “DETECTION OF NEURODEGENERATIVE DISEASES” (AMONETA DIAGNOSTICS SAS, priority 2016, published 2019).

Legend:
[1] = tested on: RBCs from transgenic APP/PS1 mice versus age-matched Wild-Type mice; test: RBC staining in Alzheimer animal model, transgenic versus wild type; type: cell-based
Experimental: In studies comparing intensities of the staining of RBCs from Alzheimer patients and healthy controls or subjects with anon-Alzheimer disease or from animal models, predictive modeling with logistic regression model and classification is performed. ROC (Receiver Operating Characteristic) Curve(s) enabling to evaluate the assay accuracy (specificity and sensitivity of the assay). To generate a ROC analysis, a logistic model is used to give a score to each patient. At each threshold between the minimum and the maximum of the population score, a matrix based on the prediction of the model compared to the real data is constructed. Based on these matrices, the accuracy, the sensitivity, the specificity, the negative and the positive predictive value are calculated. With the sensitivity and the specificity, the ROC curve is established and the AUROC (Area Under the Receiver Operating Characteristic) is calculated for the tested compound of the present invention targeting respective biomarker: PKC or Aβ (Aβ1-42 or shorter fragments). The same procedure is applied for the combination of two or more compounds tested. In this case, the class of the patients is indicated with the logical operators (AND, OR). Individual cut-off value from logistic regression model is calculated for each biomarker stained with a compound of the present invention. […]

[2] = tested on: red blood cells (RBCs) from human subjects; test: Dose-dependent staining of RBCs, flow cytometry (MEDFI); type: cell-based; settings: 0.03, 0.1, 0.3, 1 and 3 μM; RBCs 200 000 cells/mL of 3 human subjects; channel FL1 (Ex. 1), FL3 (Ex. 9)
Experimental: The blood from an animal or a human subject is sampled in specific 5 mL tube, such as lithium-heparin tube. The blood is manually mixed by inversion before use.
Red blood cells (RBCs) are obtained from whole blood after centrifugation at 200 g for 10 minutes at room temperature. RBCs pellet down and segregate from white blood cells, platelets and plasma. 5 μL of RBCs are pipetted, diluted 1000 times in 5 mL of Flow cytometry buffer (FACS buffer: 150 mM of NaCl; 1 mM of D-Glucose; 5 mM of Na2HPO4; 0.5 mM CaCl2) and either numbered by manual counting on disposable Malassez-like counting cell (X100 Cellule Fast Read, Fisher Scientific, Ref #11762712) with a microscope or counted with Flow count Fluorospheres (Beckman, Ref 7547053) so as to obtain a cell concentration of stock solution to be used in the test. […]
From these different concentration stocks, the same quantity (4) of compounds at desired concentration to be tested is added to erythrocytes in each FACS vial to obtain the same % of DMSO (0.5% of DMSO) at the end. […] In all experiments, a control is performed with the final amount of compound solvent (DMSO alone, without test compound), in order to obtain the auto-fluorescence of the RBCs. […]

Lys-[N-2-(3-CO—CH2—S-2,5-dioxo-pyrrolidinyl)-ethylamido-Bodipy]-Beta-Amyloid (1-42) [Ex. 1]
discrimination between transgenic and wild type mice by RBC staining ([1]; 1 μM, 5 transgenic mice and 6 age-matched wild type mice): excellent accuracy
discrimination between the transgenic mouse group and control mouse group by RBC staining ([1]; concentration not given): good accuracy
staining of RBCs (index MEDFI) [2]: dose-dependent staining
